Measured affinities in a library of Ab-14 light chain variants

All variants were tested on one target, the spike HR2 peptide PDVDLGDISGINAS (SARS-CoV-2).

Parent: Ab-14, a human scFv built as VH, three GGGGS repeats, VL. Only the CDRs of the light chain vary.
VH: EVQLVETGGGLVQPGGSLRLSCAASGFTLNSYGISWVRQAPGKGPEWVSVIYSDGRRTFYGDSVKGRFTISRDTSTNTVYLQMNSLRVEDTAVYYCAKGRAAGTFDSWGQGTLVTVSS
VL: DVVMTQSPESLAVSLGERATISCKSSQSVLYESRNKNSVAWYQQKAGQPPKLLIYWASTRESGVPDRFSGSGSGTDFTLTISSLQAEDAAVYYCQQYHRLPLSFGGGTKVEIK

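Phage display of a naive human antibody library on the peptide gave the parent. Designed CDR sequences, proposed from the first random library and measured here. Group labels follow the data file (Ctrl: baseline library sampled from a position-specific scoring matrix, with some repeated check sequences; Rand: our label for a block that the file lists under HC and that is probably the random mutants of the ten best first-round binders; En: ensemble of fine-tuned language models; GP: Gaussian process model; HC: hill climbing; Gen: genetic algorithm; Gibbs: Gibbs sampling; a sequence that several methods proposed may carry one label only). The scFvs were displayed on barcoded MATa yeast, the peptide on MATalpha yeast. Binding brings cells together so that they mate, and sequencing counts the barcode pairs among the diploids. A regression on co-assayed BCL2-family reference pairs converts the normalised counts of each replicate to an apparent Kd. There are six technical replicates.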

Each variant's VL is given in full.
Values are log10 of the apparent Kd in nM; lower means stronger binding.
Where no diploid with the target was found in that replicate, the entry reads "n.d.": below detection, most likely a poor binder, though not proof of it.
Nonspecific signal, from three strains lacking the peptide, appeared in 4% of pairings of all light chain designs, centred on 2.64 (5% of these signals below 1.59); values are not corrected for it.
Of ten entries with the parent sequence, four were seen in most replicates (averages 0.34 to 2.37), three in one and three in none, so single entries are noisy.
Values of this round are not directly comparable with the first-round values of the same sequences.
The authors averaged sequences with at least three values out of six and counted those with two or fewer as poor binders.

| VL | group | log10 Kd, replicates |
|---|---|---|
| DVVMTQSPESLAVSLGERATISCNISQMIFMETKNVNNVAWYQQKAGQPPKLLIYQTSTREEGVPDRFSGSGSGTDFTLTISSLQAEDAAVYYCQDYHRLPLSFGGGTKVEIK | En_HC | 0.26 0.19 0.26 -0.03 -0.14 0.10 |
| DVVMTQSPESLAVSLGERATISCKSSISYLVESRNKNSVAWYQQKAGQPPKLLIYEASTRESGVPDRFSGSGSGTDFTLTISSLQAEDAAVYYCQQYHRLPLSFGGGTKVEIK | GP_HC | 0.52 0.18 0.16 0.35 -0.05 0.39 |
| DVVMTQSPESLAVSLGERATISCKLTNVTGTEKVMGNNVAWYQQKAGQPPKLLIYEMETRERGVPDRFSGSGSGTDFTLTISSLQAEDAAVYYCQQYNRLPLAFGGGTKVEIK | En_Gen | 0.89 1.41 1.14 2.17 1.04 2.05 |
| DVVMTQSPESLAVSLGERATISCKLQQSQEYESRNKNSVAWYQQKAGQPPKLLIYNASTRESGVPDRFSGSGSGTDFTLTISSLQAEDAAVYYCQQYHRLPLSFGGGTKVEIK | GP_Gen | 0.19 0.36 -0.15 -0.08 -0.27 0.53 |
| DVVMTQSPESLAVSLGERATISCKSSQSWLYESRNKNSVAWYQQKAGQPPKLLIYGASLRESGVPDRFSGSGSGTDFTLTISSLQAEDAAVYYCQQYHRLPLSFGGGTKVEIK | GP_HC | -0.10 -0.35 -0.43 -0.43 -0.30 -0.26 |
| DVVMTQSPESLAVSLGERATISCKLSNSVNFFGHAINSVAWYQQKAGQPPKLLIYEMETRENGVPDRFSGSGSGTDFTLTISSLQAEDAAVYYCQQYDRLPLSFGGGTKVEIK | En_HC | 0.72 0.49 0.36 0.28 0.66 0.89 |
| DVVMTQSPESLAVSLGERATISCKSSIFYLEESRNKNSVAWYQQKAGQPPKLLIYEASTRESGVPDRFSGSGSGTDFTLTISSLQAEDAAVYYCQQYHRLPLSFGGGTKVEIK | GP_HC | 0.11 -0.15 -0.37 -0.53 -0.41 -0.22 |
| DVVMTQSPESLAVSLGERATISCMVSQLMVWGMHAKNSIAWYQQKAGQPPKLLIYEAEHRINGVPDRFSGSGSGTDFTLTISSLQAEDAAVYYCQQYDRLPLFFGGGTKVEIK | En_Gen | n.d. 2.37 n.d. 1.58 n.d. 2.02 |
| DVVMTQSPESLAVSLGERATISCKAQQSELYEDRNQNSVAWYQQKAGQPPKLLIYSASQRLSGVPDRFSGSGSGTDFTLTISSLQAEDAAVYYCQQYHRLPLSFGGGTKVEIK | GP_Gibbs | 0.15 -0.20 -0.03 -0.04 -0.07 -0.04 |
| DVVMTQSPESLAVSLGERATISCRSSQSVLYESRNKNGVAWYQQKAGQPPKLLIYWAKTRESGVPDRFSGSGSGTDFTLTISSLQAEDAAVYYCKQYHWLYLSFGGGTKVEIK | Ctrl | n.d. n.d. n.d. n.d. n.d. n.d. |
| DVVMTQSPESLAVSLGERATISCKVQQSVLYESRMKNSVAWYQQKAGQPPKLLIYDASTRCSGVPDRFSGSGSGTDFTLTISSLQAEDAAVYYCQQYHRLPLSFGGGTKVEIK | GP_HC | 0.53 0.44 0.17 0.33 0.24 0.41 |
| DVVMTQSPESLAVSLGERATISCKLPQSGLYESRNKNSVAWYQQKAGQPPKLLIYHASTRESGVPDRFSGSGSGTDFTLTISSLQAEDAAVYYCQQYHRLPLSFGGGTKVEIK | GP_Gen | -0.02 -0.07 -0.25 -0.24 -0.16 0.00 |
| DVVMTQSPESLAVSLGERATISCKSLQSVLYESRNKNSVAWYQQKAGQPPKLLIYHASTREQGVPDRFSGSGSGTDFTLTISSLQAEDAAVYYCQQYHFLPWSFGGGTKVEIK | Rand | 0.54 0.27 0.50 0.31 0.35 0.39 |
| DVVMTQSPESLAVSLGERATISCKLSQSVDYESRNKNSVAWYQQKAGQPPKLLIYAASTRESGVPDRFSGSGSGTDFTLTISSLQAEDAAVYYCQQYHRLPLSFGGGTKVEIK | GP_Gen | -0.04 -0.06 -0.26 -0.19 -0.20 -0.23 |
| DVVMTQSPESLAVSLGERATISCKSSQSVLYESRMKNSVAWYQQKAGQPPKLLIYWASTRESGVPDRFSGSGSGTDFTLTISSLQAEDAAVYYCQQYHRLPLSFGGGTKVEIK | Ctrl | n.d. n.d. n.d. n.d. n.d. 2.42 |
| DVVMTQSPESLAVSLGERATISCKLSLMLNDMDARMWNVAWYQQKAGQPPKLLIYEGNQTKAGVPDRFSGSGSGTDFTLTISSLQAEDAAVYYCQDYHRLPLHFGGGTKVEIK | En_Gibbs | 2.36 2.19 n.d. 1.22 2.08 1.54 |
| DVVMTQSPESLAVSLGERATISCKFSPSVLYESRFKNSVAWYQQKAGQPPKLLIYNASTRESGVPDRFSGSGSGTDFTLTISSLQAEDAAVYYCQQYHRLPLSFGGGTKVEIK | GP_HC | 0.13 0.25 0.04 -0.08 -0.14 0.23 |
| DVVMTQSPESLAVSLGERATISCHFSQHTMEEMSQNKAVAWYQQKAGQPPKLLIYEVTTTMTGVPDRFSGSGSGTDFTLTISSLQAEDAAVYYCQQYARLPFIFGGGTKVEIK | En_Gibbs | 0.74 0.10 0.82 0.61 0.09 1.69 |
| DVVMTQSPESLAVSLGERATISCKLQSVTGYESYVRNSVAWYQQKAGQPPKLLIYQMSTRAEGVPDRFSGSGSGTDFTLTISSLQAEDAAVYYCQDYNRLPLSFGGGTKVEIK | En_HC | 0.74 0.31 0.83 0.57 0.37 0.50 |
| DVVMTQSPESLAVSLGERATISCKLREVIHVETKQKNNVAWYQQKAGQPPKLLIYDNSTRESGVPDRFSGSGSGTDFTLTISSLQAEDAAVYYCQDYHRLPLSFGGGTKVEIK | En_HC | 1.57 1.04 1.53 1.40 1.90 1.98 |
| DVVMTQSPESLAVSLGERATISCKLYVSTMLETHDKNSIAWYQQKAGQPPKLLIYDLSTRGNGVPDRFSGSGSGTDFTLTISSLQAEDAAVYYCQQYHRLPLSFGGGTKVEIK | En_HC | 0.68 0.46 0.56 0.34 0.25 0.57 |
| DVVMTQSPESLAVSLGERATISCKSSQSVLYESRNKYSVAWYQQKAGQPPKLLIYWASTRESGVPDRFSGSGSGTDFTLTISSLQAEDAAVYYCQQYHRQPLSFGGGTKVEIK | Ctrl | n.d. n.d. n.d. n.d. n.d. n.d. |
| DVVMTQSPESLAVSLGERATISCKFQQSWLYESRNKNSVAWYQQKAGQPPKLLIYNASTRMSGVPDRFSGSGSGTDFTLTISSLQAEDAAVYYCQQYHRLPLSFGGGTKVEIK | GP_Gen | -0.39 0.22 -0.14 -0.30 0.02 0.10 |

Reference: Li et al. 2023, doi:10.1038/s41467-023-39022-2. File: FLAb, binding data.